Test results: PMC5234269 (2015)

The chains behind the UniProt entries cited, without tags or fusion partners. Where a name states a change or a piece, a line headed by the entry shows the natural chain unless it says otherwise.
UniProt P14416, whole entry: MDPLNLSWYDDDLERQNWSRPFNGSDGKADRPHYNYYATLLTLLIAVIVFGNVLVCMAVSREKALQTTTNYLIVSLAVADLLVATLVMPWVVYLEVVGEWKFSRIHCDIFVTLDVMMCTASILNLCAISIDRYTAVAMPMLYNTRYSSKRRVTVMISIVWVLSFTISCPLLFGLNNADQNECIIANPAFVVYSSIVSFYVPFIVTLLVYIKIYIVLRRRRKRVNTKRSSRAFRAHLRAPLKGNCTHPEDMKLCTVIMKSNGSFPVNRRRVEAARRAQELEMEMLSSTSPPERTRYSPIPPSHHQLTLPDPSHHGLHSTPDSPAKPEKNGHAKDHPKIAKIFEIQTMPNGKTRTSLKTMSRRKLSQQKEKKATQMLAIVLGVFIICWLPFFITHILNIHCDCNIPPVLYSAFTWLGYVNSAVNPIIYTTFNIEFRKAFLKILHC

Molecular target: D2R (Homo sapiens, UniProt P14416)
Conditions: result in words

Compound: CN1CN(c2ccccc2)C2(CCN(CCCC(=O)c3ccc(F)cc3)CC2)C1=O [methylspiperone]
- effect of presence or absence of Na+ on affinity for the D2R: does not affect
